Data taken from PubChem BioAssay AID720646 (Broad Institute, 2013).
Only a part is listed here, and it is no random draw. Calls of active or inactive are those of the source.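 How the source made its calls: active means fitted rise in melting shift crosses a set limit at or below the top valid dose tested; inconclusive means flat fit at mid-level activity, or a poor quality fit; inactive means the rest.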

The chains behind the UniProt entries cited, without tags or fusion partners. Where a name states a change or a piece, a line headed by the entry shows the natural chain unless it says otherwise.
UniProt Q9HCT0: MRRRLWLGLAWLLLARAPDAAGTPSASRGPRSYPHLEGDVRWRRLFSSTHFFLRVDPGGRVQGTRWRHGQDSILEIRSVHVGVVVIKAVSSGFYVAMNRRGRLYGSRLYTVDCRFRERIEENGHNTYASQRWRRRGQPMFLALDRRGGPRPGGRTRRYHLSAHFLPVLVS

Target: Fibroblast growth factor 22 (Homo sapiens) (UniProt Q9HCT0)
Experiment: FGF22 melting temperature shift by ligands – biophysical, thermal shift, cherry-pick retest, FGF22 synaptogenesis inhibitor project, dose response (AID 720646)
Settings: recombinant FGF22 thermal shift, SYPRO orange fluorescence; at 38 µM (top of the series)

Compound	thermal shift activity
Nc1ccc(CCCCOc2ccccc2)cc1	inactive: 0.267%
